For one compound, IC50 results are on record in patent US12698289B2, “Solid forms of pharmaceutically acceptable salts of (S)-(2-ethyl-5-fluoro-4-hydroxyphenyl)-1H-indazol-3-yl)-4,6-dihydropyrrolo[3,4-d]imidazol-5(1H)-yl)(3-hydroxypyrrolidin-1-yl)methanone as JAK inhibitors” (HENAN MEDINNO PHARMACEUTICAL TECHNOLOGY CO., LTD., priority 2019, dated 2026).

Protein sequences, listed by entry. Tags and fused reporters are not part of them.
UniProt O60674, whole entry: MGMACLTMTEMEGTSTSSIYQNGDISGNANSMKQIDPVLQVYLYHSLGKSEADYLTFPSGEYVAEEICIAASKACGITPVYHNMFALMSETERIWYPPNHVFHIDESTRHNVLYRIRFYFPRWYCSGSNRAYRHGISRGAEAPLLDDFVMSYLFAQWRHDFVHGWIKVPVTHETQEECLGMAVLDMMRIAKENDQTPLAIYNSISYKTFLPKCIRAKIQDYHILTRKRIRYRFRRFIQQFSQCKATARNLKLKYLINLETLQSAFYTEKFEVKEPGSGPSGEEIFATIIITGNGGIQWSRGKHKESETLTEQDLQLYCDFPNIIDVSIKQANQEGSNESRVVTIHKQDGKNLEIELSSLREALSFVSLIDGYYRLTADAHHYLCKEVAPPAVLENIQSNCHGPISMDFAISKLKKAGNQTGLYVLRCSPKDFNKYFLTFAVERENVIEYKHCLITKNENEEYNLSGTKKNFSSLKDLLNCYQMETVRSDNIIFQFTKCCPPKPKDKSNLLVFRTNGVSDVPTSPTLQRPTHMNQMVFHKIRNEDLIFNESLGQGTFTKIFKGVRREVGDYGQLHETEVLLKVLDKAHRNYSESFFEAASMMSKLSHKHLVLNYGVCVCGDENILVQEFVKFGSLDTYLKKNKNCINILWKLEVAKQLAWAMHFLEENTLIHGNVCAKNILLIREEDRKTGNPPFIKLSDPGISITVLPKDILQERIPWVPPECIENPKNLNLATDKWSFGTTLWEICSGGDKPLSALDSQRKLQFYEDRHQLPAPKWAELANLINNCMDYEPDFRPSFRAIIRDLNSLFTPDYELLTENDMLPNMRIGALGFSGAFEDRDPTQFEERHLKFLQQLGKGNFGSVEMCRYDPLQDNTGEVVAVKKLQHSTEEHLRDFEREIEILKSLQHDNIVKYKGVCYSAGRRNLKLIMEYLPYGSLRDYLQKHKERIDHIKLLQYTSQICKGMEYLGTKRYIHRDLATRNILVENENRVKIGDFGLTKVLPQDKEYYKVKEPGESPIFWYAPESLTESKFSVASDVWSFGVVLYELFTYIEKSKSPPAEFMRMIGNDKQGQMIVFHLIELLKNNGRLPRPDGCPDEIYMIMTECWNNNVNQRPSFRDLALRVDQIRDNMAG
UniProt P23458, whole entry: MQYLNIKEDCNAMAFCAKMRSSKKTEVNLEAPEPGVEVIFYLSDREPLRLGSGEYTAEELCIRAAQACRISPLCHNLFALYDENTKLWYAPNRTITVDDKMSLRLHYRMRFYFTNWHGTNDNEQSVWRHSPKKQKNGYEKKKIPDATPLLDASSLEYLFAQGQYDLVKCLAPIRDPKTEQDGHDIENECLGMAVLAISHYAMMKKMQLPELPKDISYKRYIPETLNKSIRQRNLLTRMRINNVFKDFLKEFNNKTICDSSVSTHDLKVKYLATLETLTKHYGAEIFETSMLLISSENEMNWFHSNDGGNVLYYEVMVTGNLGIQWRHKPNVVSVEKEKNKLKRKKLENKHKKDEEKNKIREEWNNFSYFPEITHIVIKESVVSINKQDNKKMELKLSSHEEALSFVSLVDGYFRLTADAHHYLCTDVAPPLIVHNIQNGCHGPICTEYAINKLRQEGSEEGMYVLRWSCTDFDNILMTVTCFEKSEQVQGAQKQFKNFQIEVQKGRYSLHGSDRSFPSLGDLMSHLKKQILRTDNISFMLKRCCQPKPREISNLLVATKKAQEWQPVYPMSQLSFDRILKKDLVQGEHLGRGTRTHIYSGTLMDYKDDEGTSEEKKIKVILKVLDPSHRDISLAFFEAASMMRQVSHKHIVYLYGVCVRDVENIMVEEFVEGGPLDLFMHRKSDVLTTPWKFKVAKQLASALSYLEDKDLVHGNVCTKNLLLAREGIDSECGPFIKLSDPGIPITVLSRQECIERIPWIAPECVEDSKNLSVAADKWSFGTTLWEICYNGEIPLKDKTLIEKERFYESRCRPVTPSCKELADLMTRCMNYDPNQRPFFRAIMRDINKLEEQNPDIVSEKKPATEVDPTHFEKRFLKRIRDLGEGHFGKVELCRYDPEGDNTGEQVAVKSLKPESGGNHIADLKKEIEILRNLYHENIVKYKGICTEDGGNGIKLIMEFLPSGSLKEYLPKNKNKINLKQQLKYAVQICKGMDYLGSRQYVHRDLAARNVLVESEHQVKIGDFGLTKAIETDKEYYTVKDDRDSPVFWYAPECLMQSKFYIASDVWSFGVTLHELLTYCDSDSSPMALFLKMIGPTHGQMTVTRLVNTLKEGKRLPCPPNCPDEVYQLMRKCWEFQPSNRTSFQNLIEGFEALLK
UniProt P29597, whole entry: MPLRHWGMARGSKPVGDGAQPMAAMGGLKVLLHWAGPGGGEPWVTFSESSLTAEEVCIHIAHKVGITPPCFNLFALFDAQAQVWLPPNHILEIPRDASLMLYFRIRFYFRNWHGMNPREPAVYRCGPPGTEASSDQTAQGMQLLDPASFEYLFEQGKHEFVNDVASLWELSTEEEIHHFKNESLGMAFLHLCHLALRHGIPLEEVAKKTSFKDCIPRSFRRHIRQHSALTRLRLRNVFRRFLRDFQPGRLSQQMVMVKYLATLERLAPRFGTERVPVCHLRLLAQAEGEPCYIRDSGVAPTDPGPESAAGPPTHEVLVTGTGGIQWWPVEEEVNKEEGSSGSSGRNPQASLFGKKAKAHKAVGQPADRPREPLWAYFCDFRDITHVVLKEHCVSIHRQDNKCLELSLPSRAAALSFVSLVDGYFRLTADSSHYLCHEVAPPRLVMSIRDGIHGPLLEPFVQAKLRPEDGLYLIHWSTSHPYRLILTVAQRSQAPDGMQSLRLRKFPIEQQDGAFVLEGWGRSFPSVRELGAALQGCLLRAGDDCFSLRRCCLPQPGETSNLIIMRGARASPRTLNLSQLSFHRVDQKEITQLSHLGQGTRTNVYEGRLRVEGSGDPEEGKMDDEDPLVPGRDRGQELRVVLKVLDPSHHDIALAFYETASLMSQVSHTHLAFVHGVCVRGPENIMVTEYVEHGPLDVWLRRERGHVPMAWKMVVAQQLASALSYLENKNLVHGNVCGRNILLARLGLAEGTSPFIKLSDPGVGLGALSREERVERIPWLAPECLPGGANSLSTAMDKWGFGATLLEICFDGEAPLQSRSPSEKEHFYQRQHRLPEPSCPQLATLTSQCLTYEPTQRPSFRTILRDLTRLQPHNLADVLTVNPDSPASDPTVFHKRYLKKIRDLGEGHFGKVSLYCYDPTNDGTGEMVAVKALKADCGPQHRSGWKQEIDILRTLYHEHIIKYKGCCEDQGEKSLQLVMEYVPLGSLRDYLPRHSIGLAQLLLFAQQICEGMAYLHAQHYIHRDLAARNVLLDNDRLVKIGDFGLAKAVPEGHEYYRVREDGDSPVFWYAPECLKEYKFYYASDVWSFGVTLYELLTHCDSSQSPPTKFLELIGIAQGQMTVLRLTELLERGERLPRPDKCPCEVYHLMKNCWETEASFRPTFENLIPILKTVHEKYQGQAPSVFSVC

Common to all, as to conditions: tested form: methanesulfonate
The target in one test is JAK2 (Homo sapiens, UniProt O60674). Description: JAK2 kinase ADP-Glo assay (Example 6, Tofacitinib reference).
In the next test the target is JAK1 (Homo sapiens, UniProt P23458). Description: JAK1 kinase ADP-Glo assay (Example 6, Tofacitinib reference).
A further test addresses TYK2 (Homo sapiens, UniProt P29597). Description: TYK2 kinase ADP-Glo assay (Example 6, Tofacitinib reference). For orientation: In ADP-Glo the light output rises with the ADP produced.

In general, IC50 refers to the midpoint of a concentration-inhibition curve. A low value points to greater potency. For `CCc1cc(O)c(F)cc1-c1ccc2c(-c3nc4c([nH]3)CN(C(=O)N3CC[C@H](O)C3)C4)n[nH]c2c1` [Compound of formula (I), (S)-(2-(6-(2-ethyl-5-fluoro-4-hydroxyphenyl)-1H-indazol-3-yl)-4,6-dihydropyrrolo[3,4-d]imidazol-5-(1H)-yl) (3-hydroxy pyrrolidin-1-yl) ketone], the IC50 on JAK2 came out at 0.3 nM; at JAK1 it was 0.12 nM; on TYK2 it was 0.18 nM.
